SMILES strings stand for the structures. The list shows a part of the results, in another mix than the full data. Active and inactive are the calls of the source. Calls follow the shape of the dose curve; as a rule, active = well fitted inhibition curve with a large enough effect; inconclusive = small, poorly fitted or top-dose-only effect; inactive = no such curve, though single readings can be large or run the other way.

Sequences of proteins named here, by UniProt entry; tags and fusion partners are left off.
UniProt O75874, whole entry, looked up, stated change not applied: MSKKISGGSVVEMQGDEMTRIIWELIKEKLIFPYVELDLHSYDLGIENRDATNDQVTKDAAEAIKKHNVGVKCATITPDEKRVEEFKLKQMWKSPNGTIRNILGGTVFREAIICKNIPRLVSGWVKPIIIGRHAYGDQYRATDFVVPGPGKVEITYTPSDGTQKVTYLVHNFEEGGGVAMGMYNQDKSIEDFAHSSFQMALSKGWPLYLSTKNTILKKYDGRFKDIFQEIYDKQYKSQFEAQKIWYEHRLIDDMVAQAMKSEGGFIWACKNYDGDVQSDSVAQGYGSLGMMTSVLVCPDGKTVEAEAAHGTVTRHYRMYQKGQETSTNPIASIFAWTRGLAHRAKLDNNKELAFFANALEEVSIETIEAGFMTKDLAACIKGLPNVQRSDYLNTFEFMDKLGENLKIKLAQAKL

These results are taken from PubChem BioAssay AID602179 (National Center for Advancing Translational Sciences (NCATS), 2012).
% is scaled to controls: 0 for no effect and ±100 for the full control effect.

The target in this assay is Isocitrate dehydrogenase [NADP] cytoplasmic (Homo sapiens) (UniProt O75874). Nature of the assay: qHTS for Inhibitors of mutant isocitrate dehydrogenase 1 (IDH1): qHTS. Also: nearly all actives have a fitted effect of over 65% in size. The conditions noted are these: IDH1-R132H enzyme, NADPH consumption, diaphorase/resazurin fluorescence; at 76.6 µM (top of the series). In outline: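 IDH1-R132H (0.5 ug/mL) preincubated 30 min with compound, then NADPH (0.016 mM) and alpha-KG (2 mM) added; 80 min at RT, pH 7.5. Remaining NADPH coupled via diaphorase/resazurin to fluorescence (540/590 nm); concentration-response curves normalized to no-enzyme control.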
Background: In qHTS, concentration-response curves come from the screen itself.
`CC(C)CC(=O)NC(Sc1ccc(Cl)cc1)C(Cl)(Cl)Cl` (stereo not drawn): the activity change, negative = inhibition was inactive: 7.7%.
As for `Nc1cc(N)c2nonc2c1[N+](=O)[O-]`, the activity change, negative = inhibition is inactive: 3.68%.
Under `O=C(NC(Sc1ccncn1)C(Cl)(Cl)Cl)c1ccccc1` (stereo not drawn) stands inactive: 1.34%.
For the compound `Oc1ccccc1CNc1ccccn1`, the activity change, negative = inhibition was inactive: 1.05%.
Under `NC(=O)c1cc([N+](=O)[O-])cc([N+](=O)[O-])c1N` stands inactive: -5.11%; under `Cc1ccc(N/C(=N/P(=O)(N2CCOCC2)N2CCOCC2)N2CCOCC2)cc1`, inactive: 4.53%; under `CN(C(=O)Cc1ccc(Cl)c(Cl)c1)[C@H]1CCCC[C@H]1N1CCCC1`, inactive: -18.2%.
For `Cc1ccc(OP(=O)(Nc2nccs2)Oc2ccc(C)cc2)cc1`, the activity change, negative = inhibition is inactive: 1.59%.
For `COc1ccccc1OP(=O)(Nc1ccc(C)cn1)Oc1ccccc1OC`, the activity change, negative = inhibition was inactive: 0.581%.
For `Clc1ccc(Cl)c(NC2=NCC(CBr)S2)c1` (stereo not drawn) the value was inactive: 4.01%; for `CN1CCCC(OC(=O)C(c2ccccc2)c2ccccc2)C1` (stereo not drawn), inactive: 4.17%; for `CCN(N=Nc1nonc1N)c1nonc1N`, inactive: -3.52%.
With `Nc1cccc2ccc([As](=O)(O)O)cc12`, the activity change, negative = inhibition was inactive: 8.35%.
Consider `CCCC1OP(N)(=O)OCC1CC` (stereo not drawn), for which the activity change, negative = inhibition was inactive: 4.87%.
Under `O=C(O)c1ccccc1[As](=O)(O)O` stands inactive: -1.04%; under `CC(=O)Nc1ccc([As](=O)(O)O)cc1`, inactive: 4.17%; under `CN(C)P(=O)(N(C)C)n1c(Nc2ccccc2)nnc1-c1ccccc1`, inactive: 1.71%.
For the compound `O=P(Nc1nc2ccc(Cl)cc2s1)(c1ccccc1)c1ccccc1`, the activity change, negative = inhibition is inactive: -4.91%.
Under `Cc1ccc(NP(=O)(Oc2ccccc2F)Oc2ccccc2F)nc1` stands inactive: 2.23%.
Under `CN(C(=O)Cc1ccc(Cl)c(Cl)c1)[C@H]1CCCC[C@@H]1N1CCCC1` stands inactive: 2.35%.
For `CCOP(=O)(Nc1ccccc1)OCC` the value was inactive: 7.72%.
For `Cc1cc(SC(NC(=O)c2ccc(F)cc2)C(Cl)(Cl)Cl)ncn1` (stereo not drawn), the activity change, negative = inhibition was inactive: 3.68%.
For the compound `CC(C)(C)C(=O)NC(Sc1ccncn1)C(Cl)(Cl)Cl` (stereo not drawn), the activity change, negative = inhibition was inactive: 3.7%.
For `O=[N+]([O-])c1ncn(CCn2ncnc2[N+](=O)[O-])n1` the value was inactive: 0.314%; for `O=[N+]([O-])c1cccc(NC2=NCC(CBr)S2)c1` (stereo not drawn), inactive: -6.39%.
For the compound `COC(=O)C1(C)COP(=O)(Nc2ccccc2)OC1` (stereo not drawn), the activity change, negative = inhibition is inactive: -1.73%.
For `O=C(O)CNc1ccc([As](=O)(O)O)cc1` the value was inactive: 0.683%; for `O=P1(N(CCCl)CCCl)OCCCS1` (stereo not drawn), inactive: -8.5%; for `O=C(Nc1cc([As](=O)(O)O)ccc1O)c1ccccc1`, inactive: -3.95%.
Under `C[N+]1=C2C=CC=CC=C2SC12C([N+](=O)[O-])=CC([N+](=O)[O-])=C[C-]2[N+](=O)[O-]` (stereo not drawn) stands inactive: 11.3%; under `Nc1ccc([As](=O)(O)c2ccc(N)cc2)cc1`, inactive: 6.82%.
Under `CCN(/C(=N/P(=O)(N1CCOCC1)N1CCOCC1)N1CCOCC1)c1ccc(OC)cc1` stands inactive: 0.795%; under `CN(C)C(=O)OCCc1n(C)cc[n+]1C`, inactive: 1.02%; under `CC(C)=N/N=C(\N)N[N+](=O)[O-]`, inactive: 1.53%.
In the case of `CC(C)c1nc(Nc2ccccc2)n(P(=O)(N(C)C)N(C)C)n1`, the activity change, negative = inhibition is inactive: 7.1%.
For `c1cc(-c2nn[nH]n2)ccc1-c1nn[nH]n1` the value was inactive: 1.24%; for `CC1CCN(C(=O)Oc2c(Cl)cc(Cl)c3cccnc23)CC1`, inactive: 3.69%.
Regarding `COc1ccc(C2=NCC(CBr)S2)cc1` (stereo not drawn), the activity change, negative = inhibition was inactive: 9.91%.
For `O=[N+]([O-])c1cccc2n[nH]nc12` the value was inactive: 2.2%; for `CC(=O)N1C2C3N(C(C)=O)C1C1N(C(C)=O)C(C(N1C(C)=O)N3C(C)=O)N2C(C)=O`, inactive: -1.07%.
For `CCc1nc2c(n1)c1c(non1O)c1c2no[n+]1[O-]` the value was inactive: 5.41%; for `O=[N+]([O-])c1cc([N+](=O)[O-])c(CCNc2ccccc2)c([N+](=O)[O-])c1`, inactive: 2.16%; for `Cc1ccc(NP(=O)(Oc2ccccc2)Oc2ccccc2)nc1`, inactive: -1.03%.
